## Measured affinities in a library of Ab-14 heavy chain variants

From the AlphaSeq antibody data of Li et al. 2023 (doi:10.1038/s41467-023-39022-2), copy in the FLAb collection.

Target: peptide PDVDLGDISGINAS, taken from heptad repeat 2 (HR2) of SARS-CoV-2 spike.

Each scFv is VH, a 15-residue (Gly4Ser)3 linker, VL, as in the parent Ab-14, and differs from it in the CDRs of the heavy chain only.
VH: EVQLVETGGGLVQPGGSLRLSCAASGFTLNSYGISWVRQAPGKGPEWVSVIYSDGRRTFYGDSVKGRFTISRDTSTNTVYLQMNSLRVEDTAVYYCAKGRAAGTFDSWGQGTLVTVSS
VL: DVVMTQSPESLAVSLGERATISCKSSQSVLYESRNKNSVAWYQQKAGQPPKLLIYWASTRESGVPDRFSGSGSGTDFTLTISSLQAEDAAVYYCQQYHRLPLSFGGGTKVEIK

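The parent was found by panning a naive human phage display library on the peptide. This is the validation round: designs drawn from the data on random variants, tested in the same kind of assay. Several design methods are mixed in this list. The scFvs were displayed on barcoded MATa yeast, the peptide on MATalpha yeast. Binding brings cells together so that they mate, and sequencing counts the barcode pairs among the diploids. Scores were corrected for input abundance and mapped to Kd with protein pairs of known affinity run in the same pool. Mating was done six times.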

Each variant is given by its three heavy chain CDRs, as the data file delimits them; those of the parent are GFTLNSYGIS, VIYSDGRRTFYGDSVK, GRAAGTFDS.
This list holds designs with more than six substitutions.
Values are apparent Kd, the geometric mean of the replicates that gave a signal; lower means stronger binding.
Where no diploid with the target was found in any replicate, the entry reads "not detected": below detection, most likely a poor binder, though not proof of it.
The authors' rule: three or more of the six replicates give a measured affinity, fewer mean a poor binder.
Background: pairings of all heavy chain designs with three empty control strains gave a value in 1% of cases (median 120 nM, 5th percentile 7.0 nM). Values in that range, when seen in few replicates, are hard to tell from nonspecific mating.
Values of this round are not directly comparable with the first-round values of the same sequences.

CDR-H1,CDR-H2,CDR-H3,Kd (apparent),seen in
GFDLNEYGIS,VIYADGVRTAYANSVK,GEVAGTFDV,1.6 nM,6 of 6
GFDLNEYGIS,VIYADGVRTFYSDSVK,GQLAGTFDV,280 pM,6 of 6
GFDLDEYGIS,VIYADGKRTAYADSVK,GNTAGTFDQ,120 pM,6 of 6
GFSIDEYGIS,VIYADGVRTAVDPSVK,GQMAAFFDE,not detected,0 of 6
GKDIEEYGIS,VIYADGMRQAYAESVK,GQVAGTGKF,not detected,0 of 6
GFDLNEYGIS,VIYADGRRTAYADSVK,GNTAGTFDS,830 pM,6 of 6
GFDLNEYGIS,VIYADGRRTAYSDSVK,GNNAGFFDS,not detected,0 of 6
GFDLDEYGIS,VIYADGRRTFYSDSVK,GEVAGTFDV,270 pM,6 of 6
GFSLDEYGIS,VIYADGRRTFYADSVK,GNMAGTFDS,660 pM,6 of 6
GFDLNEYGIS,VIYADGQRTAYIDSVK,GNVAGTFDT,520 pM,6 of 6
GFSLDEYGIS,VIYADGLRTQYHPKVK,GLQGFIFDQ,not detected,0 of 6
GADLNEYGIS,VIYADGSRTVYADTVK,GHHGGIFDS,not detected,0 of 6
EFDLQEYGIS,VIYADGKREAYKDKFK,GQVAGTFDE,7.3 nM,5 of 6
GFDLNEYGIS,VIYADGMRTAYTDNVK,GENAGTFDV,890 pM,6 of 6
GFDLDEYGIS,VIYADGKRTAYADSVK,GNTAGTFDT,450 pM,6 of 6
GFDLNEYGIS,VIYADGRRKAYADSVK,GENAGTFDV,1.5 nM,6 of 6
GFDLNEYGIS,VIYADGSRTAYADSVK,GETAGTFDI,410 pM,6 of 6
GFDLNEYGIS,VIYADGIRTAYSDQVK,WRDGIVILF,not detected,0 of 6
GFDLNEYGIS,VIYADGKRTAYADSVK,GKAAGTFDS,3.2 nM,6 of 6
GFDLNEYGIS,VIYADGKRTFYADSVK,GEVAGTFVS,550 pM,6 of 6
GFDLNEYGIS,VIYADGMRTAYVDSVK,GNQAGTFDL,830 pM,6 of 6
GFNIQDYGIS,VIYADGKRTAYAEPVK,GNIGGTIDT,6.4 nM,6 of 6
GFSLEEFGIS,VIYADGSSRAYAQDVK,GGTAGIFVV,not detected,0 of 6
GFDLNEYGIS,VIYADGKRTFYADSVK,GNVAGTFDT,230 pM,6 of 6
GFNLQEYGVS,VIYADGIRTQYTNDVK,GLYSGAFVM,not detected,0 of 6
GFALNEYGIS,VIYADGSRSAYIESVK,GVHNIDVNV,270 nM,2 of 6
GFDLNEYGIS,VIYADGRRTFYSDSVK,GAVAGTFDV,480 pM,6 of 6
GFDLNEYGIS,VIYADGMRTYYADSVK,GNVAGTFDA,110 pM,6 of 6
GFDLDEYGIS,VIYADGVRTAYADNVK,GNVAGTFDV,230 pM,6 of 6
GFDLDEYGIS,VIYADGARKSYTNSVK,GVWGTTMYV,9.1 nM,5 of 6
GPSLDEYGIS,VIYADGVRQYYADDVK,GGIAGQVNY,not detected,0 of 6
GFDLDEYGIS,VIYADGQRTAYTDSVK,GGNAGTFDV,390 pM,5 of 6
GPSLDEYGIS,VIYADGMRTAYTDSVK,GLFGATFVD,not detected,0 of 6
GFDLNEYGIS,VIYADGRRTAYLDSVK,GEAAGTFDQ,980 pM,6 of 6
GKKLDEYGIS,VIYADGKRNFYSNSVK,GGMAGGLFV,not detected,0 of 6
GFNLDEYGIS,VIYADGRRTAYAESVK,NSNMSGRVT,not detected,0 of 6
GFDLEDYGIS,VIYADGRRTFYSDSVK,GEIAGTFDI,1.1 nM,6 of 6
GFNLNEYGIS,VIYADGMRTAYSDSVK,GEVAGTFDV,810 pM,6 of 6
GFDLNEYGIS,VIYADGRRTQYIDSVK,GETAGTFDI,260 pM,6 of 6
GFELQEYGIS,VIYADGMRTAYSDNVK,GDAVGIFHV,not detected,0 of 6
GFDLDEYGIS,VIYADGQRTAYADSVK,GNTAGTFDI,450 pM,6 of 6
GQLLDDYGIS,VIYADGLRKAYVDDVK,GNVAGTFDM,300 pM,6 of 6
GPSLQEYGIS,VIYADGMRTAYTDSVK,GLFGATFVD,180 pM,6 of 6
GFDLNEYGIS,VIYADGRRTAYIDSVK,GQAAGTFDV,860 pM,6 of 6
GFDLNEYGIS,VIYADGVRTSYADDVK,GQNAGTFDV,480 pM,6 of 6
GFNLNEYGIS,VIYADGRRTAYADSVK,GEAAGTFDV,300 pM,6 of 6
GFDLNEYGIS,VIYADGMRTAYTDSVK,GQNAGTFDT,810 pM,6 of 6
GFDLDEYGIS,VIYADGKRTAYSDSVK,GEVAGTFDL,500 pM,6 of 6
GFSLDEYGIS,VIYADGIRQHYSDQVK,GVKFGNVIL,not detected,0 of 6
GFDLNEYGIS,VIYADGRRTFYTDSVK,GANAGTFDL,230 pM,6 of 6
GFDLNEYGIS,VIYADGMRTAYSDSVK,GETAGTFDQ,320 pM,6 of 6
GFDLEDYGIS,VIYADGMRTAYADDVK,GEVAGTFDV,1.1 nM,6 of 6
GFDLNEYGIS,VIYADGRRTAYVDSVK,GNTAGTFDV,650 pM,6 of 6
GFDLNEYGIS,VIYADGRRTFYADSVK,GNAAGTFNQ,470 pM,6 of 6
GFDLDEYGIS,VIYADGVRTAYSDSVK,GNNAGTFDL,890 pM,6 of 6
GFSLNEYGIS,VIYADGKSRHYADSVK,GLESGFFDI,not detected,0 of 6
GFDLNEYGIS,VIYADGRRTAYTDSVK,GQVAGTFDA,1.1 nM,6 of 6
GFDLDEYGIS,VIYADGRRTFYADSVK,GTLAGTFDT,180 pM,6 of 6
GFDLNEYGIS,VIYADGRRTFYTDSVK,GATAGTFDQ,180 pM,6 of 6
GFNIDEYGIS,VIYADGARTAYADKVK,GFNWNLSVN,not detected,0 of 6
GFDLNEYGIS,VIYADGSRTAYADDVK,GQNAGTFDV,130 pM,6 of 6
GFDLQEYGIS,VIYADGSRAAYVQNVK,GLTLDSYVV,not detected,0 of 6
GFTINTLGIS,VIYHDGRRTFYDDFVK,GRAAVTFDQ,not detected,0 of 6
GFDLNEYGIS,VIYADGMRKAYADSVK,GNTAGTFDV,330 pM,6 of 6
GFSLDEMGIS,VIYADGVRTAYVDQVK,GMGGTFMNV,160 pM,6 of 6
GFNLDEYGIS,VIYADGQRTAYADSVK,GEVAGTFDV,470 pM,6 of 6
GFDLNEYGIS,VIYADGSRTAYSDSVK,GNQAGTFDV,490 pM,6 of 6

Excerpt, the first 7 entries:

CDR-H1,CDR-H2,CDR-H3,Kd (apparent),seen in
GFDLNEYGIS,VIYADGVRTAYANSVK,GEVAGTFDV,1.6 nM,6 of 6
GFDLNEYGIS,VIYADGVRTFYSDSVK,GQLAGTFDV,280 pM,6 of 6
GFDLDEYGIS,VIYADGKRTAYADSVK,GNTAGTFDQ,120 pM,6 of 6
GFSIDEYGIS,VIYADGVRTAVDPSVK,GQMAAFFDE,not detected,0 of 6
GKDIEEYGIS,VIYADGMRQAYAESVK,GQVAGTGKF,not detected,0 of 6
GFDLNEYGIS,VIYADGRRTAYADSVK,GNTAGTFDS,830 pM,6 of 6
GFDLNEYGIS,VIYADGRRTAYSDSVK,GNNAGFFDS,not detected,0 of 6